# Data from patent US10195297B2, “Iron garnet nanoparticles for cancer radiotherapy and chemotherapy” (priority 2014, dated 2019).
# Tested on: human NSCLC A549 cells
# Experiment: MTS cytotoxicity of neutron-activated nanoparticles and free Pt drugs (Example 2)
# Assay type: cell-based
# Settings: 24 h
substance,measurement,value
oxaliplatin,synergy with the radioactive Ho,act synergistically
